Reference: patent publication US5084454A, “2-(piperidinylmethyl)-4-phenyl-2,3-dihydro-4H-1,4-benzoxazines useful as antipsychotics” (Farmitalia Carlo Erba S.r.l., priority 1988, dated 1992)

The compounds below were run on mice (assay: orientative acute toxicity (LD50), oral, mice). Settings: oral single administration, assessed on seventh day, 10080 min.

SMILES | LD50
O=C1NCN(c2ccccc2)C12CCN(CC1CN(c3ccccc3)c3ccccc3O1)CC2 (stereo not drawn) | > 800 mg/kg/os
O=C1NCN(c2ccccc2)C12CCN(CC1CN(c3ccccc3)c3ccccc3O1)CC2 (single isomer, unassigned) | > 800 mg/kg/os
O=C1NCN(c2ccccc2)C12CCN(CC1CN(c3ccc(F)cc3)c3ccccc3O1)CC2 (stereo not drawn) [FCE 25676, 2-(1-phenyl-1,3,8-triazaspiro[4,5]decan-4-one-8-yl)-methyl-4-(4-fluorophenyl)-2,3-dihydro-4H-1,4-benzoxazine] | > 800 mg/kg/os
